From patent US10112926B2 (priority 2014, dated 2018)
Where a name gives a salt, the structure may show the parent alone. Read-outs that look alike come from different tables or passages of the source.

Chains of the proteins cited; added tags and fusions are not shown. Lines headed by an entry give the natural chain unless they say otherwise; changes in a name come on top.
UniProt P42336, whole entry, looked up: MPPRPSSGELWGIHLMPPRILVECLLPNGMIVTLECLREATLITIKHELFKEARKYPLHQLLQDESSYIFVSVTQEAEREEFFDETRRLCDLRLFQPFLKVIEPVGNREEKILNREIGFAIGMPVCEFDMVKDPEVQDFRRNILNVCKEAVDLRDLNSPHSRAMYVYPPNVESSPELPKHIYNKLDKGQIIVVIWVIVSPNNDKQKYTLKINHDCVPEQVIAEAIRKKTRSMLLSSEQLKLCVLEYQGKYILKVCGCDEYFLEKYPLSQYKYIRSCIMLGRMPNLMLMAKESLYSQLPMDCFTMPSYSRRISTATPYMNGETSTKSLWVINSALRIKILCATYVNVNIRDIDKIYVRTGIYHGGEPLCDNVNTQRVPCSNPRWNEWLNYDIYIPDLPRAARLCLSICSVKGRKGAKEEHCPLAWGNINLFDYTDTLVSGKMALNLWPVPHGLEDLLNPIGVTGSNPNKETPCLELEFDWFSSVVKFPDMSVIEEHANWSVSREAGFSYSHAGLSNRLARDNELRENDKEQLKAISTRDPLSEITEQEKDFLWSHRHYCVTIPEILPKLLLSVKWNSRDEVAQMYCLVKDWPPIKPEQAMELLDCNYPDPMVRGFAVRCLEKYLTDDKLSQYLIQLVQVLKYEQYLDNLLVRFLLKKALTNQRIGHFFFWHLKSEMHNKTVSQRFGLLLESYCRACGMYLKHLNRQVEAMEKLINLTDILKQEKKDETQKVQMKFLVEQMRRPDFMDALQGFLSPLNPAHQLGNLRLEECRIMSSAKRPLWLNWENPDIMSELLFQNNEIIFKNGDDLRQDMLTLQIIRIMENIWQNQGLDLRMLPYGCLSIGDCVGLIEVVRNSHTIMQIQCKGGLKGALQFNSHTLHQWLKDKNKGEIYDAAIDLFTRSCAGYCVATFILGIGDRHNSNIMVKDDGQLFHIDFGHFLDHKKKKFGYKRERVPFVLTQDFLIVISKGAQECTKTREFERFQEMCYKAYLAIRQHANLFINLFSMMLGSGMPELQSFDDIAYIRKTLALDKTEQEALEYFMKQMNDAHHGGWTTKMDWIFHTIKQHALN
UniProt P42338: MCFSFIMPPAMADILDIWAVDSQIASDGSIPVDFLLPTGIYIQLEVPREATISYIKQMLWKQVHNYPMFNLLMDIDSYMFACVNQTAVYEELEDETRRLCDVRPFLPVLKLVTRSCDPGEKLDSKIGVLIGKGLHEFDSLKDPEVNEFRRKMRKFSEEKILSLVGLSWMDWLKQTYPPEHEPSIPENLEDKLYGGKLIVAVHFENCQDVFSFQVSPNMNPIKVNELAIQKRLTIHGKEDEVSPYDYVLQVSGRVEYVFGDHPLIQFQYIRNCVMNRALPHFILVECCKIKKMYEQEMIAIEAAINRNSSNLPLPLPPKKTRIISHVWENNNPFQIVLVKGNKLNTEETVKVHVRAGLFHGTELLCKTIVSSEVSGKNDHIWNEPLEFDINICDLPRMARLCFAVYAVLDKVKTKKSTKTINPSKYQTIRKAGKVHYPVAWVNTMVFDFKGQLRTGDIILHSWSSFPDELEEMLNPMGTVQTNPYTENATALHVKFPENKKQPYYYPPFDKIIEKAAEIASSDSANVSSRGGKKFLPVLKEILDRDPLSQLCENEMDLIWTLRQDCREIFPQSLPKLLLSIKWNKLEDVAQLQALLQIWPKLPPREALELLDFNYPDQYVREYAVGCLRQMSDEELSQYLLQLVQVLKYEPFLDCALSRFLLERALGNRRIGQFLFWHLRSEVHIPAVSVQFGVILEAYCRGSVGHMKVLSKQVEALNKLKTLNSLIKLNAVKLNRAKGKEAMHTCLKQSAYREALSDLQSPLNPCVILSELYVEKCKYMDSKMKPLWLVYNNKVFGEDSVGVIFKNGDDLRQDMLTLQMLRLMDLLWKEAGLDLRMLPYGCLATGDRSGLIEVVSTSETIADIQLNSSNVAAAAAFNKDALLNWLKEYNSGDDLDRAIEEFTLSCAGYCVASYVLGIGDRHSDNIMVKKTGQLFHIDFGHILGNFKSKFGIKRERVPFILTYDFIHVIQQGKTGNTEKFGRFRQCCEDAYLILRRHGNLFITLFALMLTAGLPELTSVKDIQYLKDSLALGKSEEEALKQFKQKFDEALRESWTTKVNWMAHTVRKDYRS
UniProt O00329: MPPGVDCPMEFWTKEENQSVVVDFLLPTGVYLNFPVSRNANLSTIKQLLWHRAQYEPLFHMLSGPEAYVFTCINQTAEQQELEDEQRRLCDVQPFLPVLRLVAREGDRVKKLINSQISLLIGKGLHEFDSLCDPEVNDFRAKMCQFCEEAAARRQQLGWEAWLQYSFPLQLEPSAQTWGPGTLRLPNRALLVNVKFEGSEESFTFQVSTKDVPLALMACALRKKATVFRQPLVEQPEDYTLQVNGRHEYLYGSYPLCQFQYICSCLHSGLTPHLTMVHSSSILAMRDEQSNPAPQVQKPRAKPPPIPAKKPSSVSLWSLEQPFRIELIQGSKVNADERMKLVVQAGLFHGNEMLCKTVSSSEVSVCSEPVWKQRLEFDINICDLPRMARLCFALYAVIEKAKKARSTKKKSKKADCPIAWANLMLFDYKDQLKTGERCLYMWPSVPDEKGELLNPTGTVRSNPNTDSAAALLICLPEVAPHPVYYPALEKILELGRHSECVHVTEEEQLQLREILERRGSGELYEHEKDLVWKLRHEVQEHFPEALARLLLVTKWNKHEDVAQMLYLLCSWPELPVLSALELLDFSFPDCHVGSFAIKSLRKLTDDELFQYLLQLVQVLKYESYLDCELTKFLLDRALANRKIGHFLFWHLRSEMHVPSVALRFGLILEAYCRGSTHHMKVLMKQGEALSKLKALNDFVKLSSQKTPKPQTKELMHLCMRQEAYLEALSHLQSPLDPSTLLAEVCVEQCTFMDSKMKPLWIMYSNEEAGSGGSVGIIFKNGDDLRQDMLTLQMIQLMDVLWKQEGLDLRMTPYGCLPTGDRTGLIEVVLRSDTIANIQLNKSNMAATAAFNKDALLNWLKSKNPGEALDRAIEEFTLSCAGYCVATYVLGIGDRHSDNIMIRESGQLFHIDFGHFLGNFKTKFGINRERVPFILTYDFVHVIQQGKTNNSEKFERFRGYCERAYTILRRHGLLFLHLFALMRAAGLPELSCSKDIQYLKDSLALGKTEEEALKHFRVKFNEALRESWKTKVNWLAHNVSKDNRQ
UniProt Q8NEB9, whole entry: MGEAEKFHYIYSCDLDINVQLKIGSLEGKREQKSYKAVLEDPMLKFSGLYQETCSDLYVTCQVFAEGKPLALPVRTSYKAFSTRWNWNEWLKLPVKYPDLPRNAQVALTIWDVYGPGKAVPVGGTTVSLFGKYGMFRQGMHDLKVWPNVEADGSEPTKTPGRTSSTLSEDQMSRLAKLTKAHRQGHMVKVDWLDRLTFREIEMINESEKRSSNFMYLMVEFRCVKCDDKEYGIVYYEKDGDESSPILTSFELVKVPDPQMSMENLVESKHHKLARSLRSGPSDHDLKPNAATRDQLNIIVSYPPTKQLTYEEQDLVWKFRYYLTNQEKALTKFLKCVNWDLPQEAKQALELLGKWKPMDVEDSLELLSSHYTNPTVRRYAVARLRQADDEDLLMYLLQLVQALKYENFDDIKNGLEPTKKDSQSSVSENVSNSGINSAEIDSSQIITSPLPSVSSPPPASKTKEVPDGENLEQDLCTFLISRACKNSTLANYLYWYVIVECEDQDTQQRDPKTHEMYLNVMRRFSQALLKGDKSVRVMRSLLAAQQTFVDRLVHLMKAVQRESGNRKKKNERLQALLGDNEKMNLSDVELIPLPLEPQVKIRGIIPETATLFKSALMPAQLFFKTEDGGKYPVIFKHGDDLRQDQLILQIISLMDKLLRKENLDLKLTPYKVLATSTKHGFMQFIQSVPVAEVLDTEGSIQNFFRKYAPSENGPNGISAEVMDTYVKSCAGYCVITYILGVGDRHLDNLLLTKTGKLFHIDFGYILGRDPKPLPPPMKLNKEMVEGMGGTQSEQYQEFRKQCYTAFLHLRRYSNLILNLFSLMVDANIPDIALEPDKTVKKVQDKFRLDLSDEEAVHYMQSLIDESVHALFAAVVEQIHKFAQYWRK
UniProt Q9UBF8: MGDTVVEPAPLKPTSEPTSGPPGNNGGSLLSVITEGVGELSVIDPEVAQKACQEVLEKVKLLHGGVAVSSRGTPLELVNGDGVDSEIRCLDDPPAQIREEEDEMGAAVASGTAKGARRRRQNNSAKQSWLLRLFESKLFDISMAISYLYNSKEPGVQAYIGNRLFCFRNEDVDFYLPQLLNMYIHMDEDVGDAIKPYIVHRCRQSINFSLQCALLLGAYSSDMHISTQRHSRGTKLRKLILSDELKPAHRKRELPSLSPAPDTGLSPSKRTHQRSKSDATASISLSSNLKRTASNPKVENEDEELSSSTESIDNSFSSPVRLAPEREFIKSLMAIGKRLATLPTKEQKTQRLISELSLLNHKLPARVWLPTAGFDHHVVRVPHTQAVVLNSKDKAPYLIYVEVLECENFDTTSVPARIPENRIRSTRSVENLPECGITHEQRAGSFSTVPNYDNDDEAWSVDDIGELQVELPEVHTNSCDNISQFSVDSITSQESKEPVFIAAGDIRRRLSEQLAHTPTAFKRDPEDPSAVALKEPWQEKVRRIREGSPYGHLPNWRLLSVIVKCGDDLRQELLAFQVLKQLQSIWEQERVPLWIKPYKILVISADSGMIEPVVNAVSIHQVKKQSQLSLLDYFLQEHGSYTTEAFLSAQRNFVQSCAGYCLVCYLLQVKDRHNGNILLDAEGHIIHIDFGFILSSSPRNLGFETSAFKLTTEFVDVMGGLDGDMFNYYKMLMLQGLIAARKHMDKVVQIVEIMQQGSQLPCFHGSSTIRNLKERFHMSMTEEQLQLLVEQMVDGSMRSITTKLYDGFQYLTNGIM
UniProt P48736: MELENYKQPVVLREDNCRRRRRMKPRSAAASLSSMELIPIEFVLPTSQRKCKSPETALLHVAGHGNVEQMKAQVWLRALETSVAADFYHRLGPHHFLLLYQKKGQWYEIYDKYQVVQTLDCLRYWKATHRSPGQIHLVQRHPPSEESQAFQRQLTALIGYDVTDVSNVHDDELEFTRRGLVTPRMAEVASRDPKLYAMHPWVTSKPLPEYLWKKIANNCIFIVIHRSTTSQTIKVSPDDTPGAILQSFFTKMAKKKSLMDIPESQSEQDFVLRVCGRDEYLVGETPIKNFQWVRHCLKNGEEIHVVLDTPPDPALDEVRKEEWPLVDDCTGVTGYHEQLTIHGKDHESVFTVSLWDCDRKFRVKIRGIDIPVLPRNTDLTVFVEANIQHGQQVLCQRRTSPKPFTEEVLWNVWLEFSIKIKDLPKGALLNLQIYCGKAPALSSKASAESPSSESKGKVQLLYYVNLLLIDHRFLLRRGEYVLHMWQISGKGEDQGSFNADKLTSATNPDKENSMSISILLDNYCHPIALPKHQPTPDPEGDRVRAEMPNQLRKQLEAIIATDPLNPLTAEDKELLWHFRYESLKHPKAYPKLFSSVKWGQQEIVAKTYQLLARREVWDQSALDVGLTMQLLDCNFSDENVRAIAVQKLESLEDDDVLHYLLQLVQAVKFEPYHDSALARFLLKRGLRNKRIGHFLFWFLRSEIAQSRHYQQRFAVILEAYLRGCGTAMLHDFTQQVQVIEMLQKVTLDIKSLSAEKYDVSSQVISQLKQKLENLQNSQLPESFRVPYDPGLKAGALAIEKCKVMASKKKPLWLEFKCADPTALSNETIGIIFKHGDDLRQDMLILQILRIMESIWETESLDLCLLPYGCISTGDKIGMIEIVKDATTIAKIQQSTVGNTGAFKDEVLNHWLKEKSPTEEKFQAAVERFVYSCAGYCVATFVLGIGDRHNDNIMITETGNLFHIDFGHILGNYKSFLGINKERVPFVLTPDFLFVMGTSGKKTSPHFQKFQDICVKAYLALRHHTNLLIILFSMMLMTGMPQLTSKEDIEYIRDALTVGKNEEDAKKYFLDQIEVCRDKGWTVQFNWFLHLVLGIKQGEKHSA

Experiments:
[1] = biological target: T1, PI 3-kinase alpha (Homo sapiens (Human), UniProt P42336)
[2] = biological target: T2, PI 3-kinase beta (Homo sapiens (Human), UniProt P42338)
[3] = biological target: PI 3-kinase delta (Homo sapiens (Human), UniProt O00329); conditions: read-out: Assay F PI3Kδ IC50
[4] = biological target: T3, PI 3-kinase alpha (Rat-1 pBABEpuro Myr-HA-hp110 alpha cells) (Homo sapiens (Human), UniProt P42336); test: cell-based; conditions: Assay H PI3Kα IC50
[5] = biological target: T4, PI 3-kinase beta (Rat-1 pBABEpuro Myr-HA-hp110 beta cells) (Homo sapiens (Human), UniProt P42338); test: cell-based; conditions: Assay I PI3Kβ IC50
[6] = biological target: T4, PI 3-kinase beta (Rat-1 pBABEpuro Myr-HA-hp110 beta cells); test: cell-based
[7] = biological target: T2, PI 3-kinase beta; test: biochemical; conditions: Assay B PI3Kβ IC50 (μM)
[8] = biological target: T1, PI 3-kinase alpha; test: biochemical; conditions: Assay A PI3Kα IC50 (μM)
[9] = biological target: Vps34 (Homo sapiens (Human), UniProt Q8NEB9); test: biochemical
[10] = biological target: PI 4-kinase beta (Homo sapiens (Human), UniProt Q9UBF8); test: biochemical
[11] = biological target: T3, PI 3-kinase alpha (Rat-1 pBABEpuro Myr-HA-hp110 alpha cells); test: cell-based
[12] = biological target: PI 3-kinase gamma (Homo sapiens (Human), UniProt P48736); conditions: read-out: Assay E PI3Kγ

Row | SMILES | IC50 ([1]; read-out: Assay A PI3Kα IC50) [nM] | IC50 ([2]; read-out: Assay B PI3Kβ IC50) [nM] | IC50 [6] [nM] | IC50 [9] [nM] | IC50 [11] [nM] | other results
1 | Cc1cc(-c2cc(-c3cc(S(=O)(=O)NCCO)ccc3C)cnc2N)on1 [Example 73, 3-(6-Amino-5-(3-methylisoxazol-5-yl)pyridin-3-yl)-N-(2-hydroxyethyl)-4-methylbenzenesulfonamide] | 240 | 1000 | – | – | – | IC50 [3]: 520 nM; IC50 [4]: 2530 nM; IC50 [5]: > 10000 nM
2 | Cc1cc(-c2cc(-c3cc(S(=O)(=O)NCC4(O)CCC4)ccc3C)cnc2N)on1 [Example 37.35, 3-(6-Amino-5-(3-methylisoxazol-5-yl)pyridin-3-yl)-N-((1-hydroxycyclobutyl)methyl)-4-methylbenzenesulfonamide] | 590 | 3300 | – | – | – | IC50 [3]: 1200 nM; IC50 [4]: 3570 nM; IC50 [5]: > 10000 nM
3 | Cc1ncc(-c2cc(-c3cc(S(=O)(=O)N[C@H]4CC[C@@H](O)C4)ccc3C)cnc2N)o1 (racemic) [Example 104.16, (+/−)-cis-3-(6-amino-5-(2-methyloxazol-5-yl)pyridin-3-yl)-N-(3-hydroxycyclopentyl)-4-methylbenzenesulfon-amide] | – | – | 5060 | – | – | IC50 [7]: > 10 µM
4 | Cc1cc(-c2cc(-c3cc(S(=O)(=O)NCC4CCCOC4)ccc3C)cnc2N)on1 (single isomer, unassigned) [Example 23a, (R or S)-3-(6-Amino-5-(3-methylisoxazol-5-yl)pyridin-3-yl)-4-methyl-N-((tetrahydro-2H-pyran-3-yl)methyl)benzenesulfonamide] | – | – | – | > 10000 | – | IC50 [4]: 2590 nM; IC50 [5]: > 3000 nM; IC50 [8]: 0.26 µM; IC50 [7]: 2.55 µM; IC50 ([10]; Assay D PI4Kβ IC50 (μM)): 2.1 µM
5 | Cc1cc(-c2cc(-c3cc(S(=O)(=O)N4CC5(CCOC5)C4)ccc3C)cnc2N)on1 [Example 19.1, 5-(5-(6-oxa-2-azaspiro[3.4]octan-2-ylsulfonyl)-2-methylphenyl)-3-(3-methylisoxazol-5-yl)pyridin-2-amine trifluoroacetic acid salt] | 550 | > 10000 | > 10000 | – | 9290 | –
6 | Cc1ncc(-c2cc(-c3cc(S(=O)(=O)NCC(F)F)ccc3C)cnc2N)o1 [Example 104.10, 3-(6-amino-5-(2-methyloxazol-5-yl)pyridin-3-yl)-N-(2,2-difluoroethyl)-4-methylbenzenesulfon-amide] | 270 | 1100 | 8990 | – | 1100 | –
7 | Cc1noc(-c2cc(-c3cc(S(=O)(=O)NCC(C)(C)O)c(Cl)cc3C)cnc2N)n1 [Example 89, 5-(6-Amino-5-(3-methyl-1,2,4-oxadiazol-5-yl)pyridin-3-yl)-2-chloro-N-(2-hydroxy-2-methylpropyl)-4-methylbenzenesulfonamide] | 100 | 230 | 1620 | – | 730 | –
8 | Cc1cc(-c2cc(-c3cc(S(=O)(=O)N[C@H]4C[C@H](O)C4)ccc3C)cnc2N)on1 [Example 36b, trans-3-(6-Amino-5-(3-methylisoxazol-5-yl)pyridin-3-yl)-N-(−3-hydroxycyclobutyl)-4-methylbenzenesulfonamide] | – | – | – | > 10000 | – | IC50 [4]: > 10000 nM; IC50 [5]: 9630 nM
9 | Cc1ncc(-c2cc(-c3cc(S(=O)(=O)N4CC(CO)C4)ccc3C)cnc2N)s1 [Example 83.1, (1-((3-(6-Amino-5-(2-methylthiazol-5-yl)pyridin-3-yl)-4-methylphenyl)sulfonyl)azetidin-3-yl)methanol] | – | – | – | 4600 | – | IC50 ([10]; Assay D PI4Kβ IC50 (μM)): 2.5 µM
10 | Cc1cc(-c2cc(-c3cc(S(=O)(=O)NO[C@H]4C[C@H](O)C4)ccc3C)cnc2N)on1 [Example 95, trans-3-(6-amino-5-(3-methylisoxazol-5-yl)pyridin-3-yl)-N-((1r,3r)-3-hydroxycyclobutoxy)-4-methylbenzenesulfonamide] | 100 | 690 | 2880 | – | 380 | –
11 | COCC1CCN(S(=O)(=O)c2ccc(C)c(-c3cnc(N)c(-c4cc(C)no4)c3)c2)CC1 [Example 19.18, 5-(5-((4-(methoxymethyl)piperidin-1-yl)sulfonyl)-2-methylphenyl)-3-(3-methylisoxazol-5-yl)pyridin-2-amine trifluoroacetic acid salt] | 760 | > 10000 | > 10000 | – | 9530 | –
12 | Cc1cc(-c2cc(-c3cc(S(=O)(=O)NC4CCOC4=O)ccc3C)cnc2N)on1 (stereo not drawn) [Example 19.2, 3-(6-amino-5-(3-methylisoxazol-5-yl)pyridin-3-yl)-4-methyl-N-(2-oxotetrahydrofuran-3-yl)benzene sulfonamide trifluoroacetic acid salt] | 680 | 1900 | > 10000 | – | > 10000 | –
13 | Cc1cc(-c2cc(-c3cc(S(=O)(=O)NOC4CCOC4)ccc3C)cnc2N)on1 (single isomer, unassigned) [Example 21a, (R or S)-3-(6-Amino-5-(3-methylisoxazol-5-yl)pyridin-3-yl)-4-methyl-N-((tetrahydrofuran-3-yl)oxy)benzenesulfonamide] | – | – | – | > 10000 | – | IC50 [4]: 740 nM; IC50 [7]: 0.68 µM
14 | Cc1ncc(-c2cc(-c3cc(S(=O)(=O)NCC(C)O)ccc3C)cnc2N)o1 (racemic) [Example 104.15, rac-3-(6-amino-5-(2-methyloxazol-5-yl)pyridin-3-yl)-N-(2-hydroxypropyl)-4-methylbenzenesulfon-amide] | – | – | 5200 | 1600 | 3580 | IC50 [8]: 0.19 µM; IC50 [7]: > 10 µM; IC50 ([10]; Assay D PI4Kβ IC50 (μM)): 1.9 µM
15 | CC(C)(C)c1ccc(C(=O)c2cc(-c3cccc(S(=O)(=O)NC4CC4)c3)cnc2N)cc1 [(iii), reference compound] | – | – | – | 700 | – | IC50 ([1]; read-out: Assay A PI3Kα): 20 nM; IC50 [12]: 1200 nM; IC50 ([10]; Assay D PI4Kβ): 0.3 µM
16 | COCCNS(=O)(=O)c1cc(-c2cnc(N)c(C(=O)c3cccnc3)n2)ccc1C(F)(F)F [(viii), reference compound] | – | – | – | – | – | IC50 ([2]; read-out: Assay B PI3Kβ): 460 nM; IC50 ([10]; Assay D PI4Kβ): 0.29 µM
17 | Cc1cc(-c2cc(-c3cc(S(=O)(=O)N[C@H]4CC[C@H](O)C4)ccc3C)cnc2N)on1 (racemic) [Example 96, trans-3-(6-amino-5-(3-methylisoxazol-5-yl)pyridin-3-yl)-N-(3-hydroxycyclopentyl)-4-methylbenzenesulfonamide] | – | – | > 10000 | > 10000 | 5840 | IC50 [8]: 1.1 µM
18 | COC[C@@H]1COCCN1S(=O)(=O)c1ccc(C)c(-c2cnc(N)c(-c3cc(C)no3)c2)c1 [Example 19.20, (R)-5-(5-((3-(methoxymethyl)morpho-lino)sulfonyl)-2-methylphenyl)-3-(3-methylisoxazol-5-yl)pyridin-2-amine trifluoroacetic acid salt] | 2800 | > 10000 | > 10000 | – | > 10000 | –
19 | CNC(=O)c1nc(-c2ccc(Cl)c(S(=O)(=O)Nc3cccc(F)c3C)c2)cnc1N [(xi), reference compound] | – | – | – | 1600 | – | IC50 ([10]; Assay D PI4Kβ): 0.41 µM
20 | Cc1cc(-c2cc(-c3cc(S(=O)(=O)N4CCOC[C@H]4C)ccc3C)cnc2N)on1 [Example 19.6, (R)-5-(2-methyl-5-((3-methylmorpholino)sulfon-yl)phenyl)-3-(3-methylisoxazol-5-yl)pyridin-2-amine trifluoroacetic acid salt] | 700 | 4900 | > 10000 | – | > 10000 | –
21 | Cc1cc(-c2cc(-c3cc(S(=O)(=O)N[C@H]4CCC[C@H](O)C4)ccc3C)cnc2N)on1 [Example 19.16, 3-(6-amino-5-(3-methylisoxazol-5-yl)pyridin-3-yl)-N-((1S,3S)-3-hydroxycyclohexyl)-4-methylbenzenesulfon-amide trifluoroacetic acid salt] | 400 | 980 | > 10000 | – | 3720 | –
22 | Cc1ncc(-c2cc(-c3cc(S(=O)(=O)N[C@H]4CC[C@H](O)C4)ccc3C)cnc2N)o1 (racemic) [Example 104.4, (+/−)trans-3-(6-amino-5-(2-methyloxazol-5-yl)pyridin-3-yl)-N-(3-hydroxycyclopentyl)-4-methylbenzenesulfon-amide] | – | – | 7890 | – | – | IC50 [7]: 1 µM
23 | Cc1ncc(-c2cc(-c3cc(S(=O)(=O)NCCO)ccc3C)cnc2N)o1 [Example 104.5, 3-(6-amino-5-(2-methyloxazol-5-yl)pyridin-3-yl)-N-(2-hydroxyethyl)-4-methylbenzenesulfon-amide] | 350 | > 10000 | > 10000 | – | 6620 | –
24 | Cc1ccc(S(=O)(=O)NCC(C)(C)O)cc1-c1cnc(N)c(-c2ccn(C)n2)c1 [Example 110, 3-(6-amino-5-(1-methyl-1H-pyrazol-3-yl)pyridin-3-yl)-N-(2-hydroxy-2-methylpropyl)-4-methylbenzenesulfonamide] | 2750 | 9500 | > 10000 | – | 9310 | –
